Earlier results as cited in publication PMC12135518, “Population pharmacokinetics and dosing optimization of teicoplanin in renal transplant patients” (Antimicrobial Agents and Chemotherapy, 2025).

Settings: triexponential elimination; cited from earlier work

teicoplanin
elimination half-life: 83 to 163 h
